Test results as given in patent US11285220B2, “Materials and methods relating to linkers for use in protein drug conjugates” (Iksuda Therapeutics Limited, priority 2014, dated 2022).

Experiments:
[1] = tested on: BT474 breast cancer cell tumours; experiment: Multi-dose xenograft, effect on tumour growth; format: in vivo, mice; conditions: 21 day therapy period
Protocol: (§1) The breast cancer cell line utilised was BT474 (Her2 expresser, with high susceptibility to trastuzumab).
Tumour growth was determined by changes in tumour volumes.

[2] = Multi-dose xenograft, mouse weight as measure of ADC toxicity; format: in vivo; conditions: BT474 xenograft mice, over the therapy period
Text: as §1
Mouse weight is used (as shown in FIG. 40) to measure the toxicity of the ADC in vivo. […] This is indicative of the ADCs of the present invention being of suitable toxicity levels for use commercially.

[3] = tested on: BT474 breast cancer cell tumours; experiment: Xenograft tumour maturity histopathology (haematoxylin and eosin); format: in vivo, mice; conditions: 0.1 mg/kg, 10 day therapy period
[4] = SEC analysis of albumin-doxorubicin conjugates (monomer content, aggregation); format: physicochemical
Protocol: The extent of albumin-doxorubicin conjugate aggregation was determined by analysis on non-reducing SDS-PAGE and SEC chromatography.
5 μl of each conjugate was loaded on to a SEC HPLC column equilibrated with 150 mM sodium phosphate buffer at pH 7.0 and eluted at flow rate of 1 mL/min with detection at 280 nm.

[5] = Stability of albumin-linker conjugates in glutathione (ESI-MS); format: physicochemical; conditions: 1 mM glutathione, PBS pH 7.4, 37 °C, day 4
[6] = 0.1 mg/kg, relative to untreated group

trastuzumab-PL13-NH-PEG4-val-cit-4-aminobenzoyl-MMAE
tumour growth (tumour volume) [1, 6]: tumour growth delay
tumour growth (tumour volume) ([1]; 5 mg/kg): complete responses
tumour growth (tumour volume) ([1]; 10 mg/kg): complete responses
effect on mouse weight [2]: negligible effect
reduction in tumour maturity [3]: No reduction

albumin-DOX
monomer content (SEC) ([4]; 150 mM sodium phosphate pH 7.0): approximately 97.6%

albumin-PL12 conjugate
Albumin-GSH signal [5]: ~8%

native albumin: wild-type serum albumin
tendency to aggregate (high molecular weight species, SEC) ([4]; non-conjugated and doxorubicin conjugated samples): 2.4-2.6%

Trastuzumab-maleimide-val-cit-4-aminobenzoyl-MMAE: comparison ADC comprising a known maleimide linker [reference compound]
tumour growth (tumour volume) [1, 6]: tumour growth delay
tumour growth (tumour volume) ([1]; 5 mg/kg): complete responses
tumour growth (tumour volume) ([1]; 10 mg/kg): complete responses
effect on mouse weight [2]: negligible effect
